Data set [1] deals with YEATS domain-containing protein 4 (Homo sapiens, UniProt O95619). The data set is described as follows: Binding affinity to human his-tagged recombinant YEATS4 expressed in Escherichia coli assessed as inhibition constant using biotin tagged lysine 27-crotonylated histone H3 peptide as substrate preincubated for 20 mins followed by substrate addition measured after 30 mins by FRET analysis.

By UniProt entry, the sequences of proteins in these tests, tags left out. Where a name states a change or a piece, a line headed by the entry shows the natural chain unless it says otherwise.
UniProt O95619, whole entry, looked up: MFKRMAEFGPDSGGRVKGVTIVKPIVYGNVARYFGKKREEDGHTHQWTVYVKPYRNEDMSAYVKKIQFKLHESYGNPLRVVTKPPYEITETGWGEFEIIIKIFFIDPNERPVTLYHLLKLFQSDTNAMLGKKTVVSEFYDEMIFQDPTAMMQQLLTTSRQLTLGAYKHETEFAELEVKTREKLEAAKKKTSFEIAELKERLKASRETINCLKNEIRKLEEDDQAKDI
UniProt Q03111: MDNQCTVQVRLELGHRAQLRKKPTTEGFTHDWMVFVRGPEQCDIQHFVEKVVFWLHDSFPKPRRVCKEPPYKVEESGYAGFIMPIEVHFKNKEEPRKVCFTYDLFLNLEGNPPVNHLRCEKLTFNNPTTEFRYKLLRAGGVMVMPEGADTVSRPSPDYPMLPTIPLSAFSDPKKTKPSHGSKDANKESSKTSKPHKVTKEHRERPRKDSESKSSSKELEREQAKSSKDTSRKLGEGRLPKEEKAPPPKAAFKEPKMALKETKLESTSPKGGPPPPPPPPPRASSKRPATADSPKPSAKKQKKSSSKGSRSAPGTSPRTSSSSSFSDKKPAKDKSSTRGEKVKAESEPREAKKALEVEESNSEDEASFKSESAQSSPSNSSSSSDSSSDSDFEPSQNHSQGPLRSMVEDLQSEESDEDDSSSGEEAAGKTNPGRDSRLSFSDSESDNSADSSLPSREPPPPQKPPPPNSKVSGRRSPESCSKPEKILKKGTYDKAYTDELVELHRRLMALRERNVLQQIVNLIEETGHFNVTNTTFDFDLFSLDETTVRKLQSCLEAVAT
UniProt Q9ULM3: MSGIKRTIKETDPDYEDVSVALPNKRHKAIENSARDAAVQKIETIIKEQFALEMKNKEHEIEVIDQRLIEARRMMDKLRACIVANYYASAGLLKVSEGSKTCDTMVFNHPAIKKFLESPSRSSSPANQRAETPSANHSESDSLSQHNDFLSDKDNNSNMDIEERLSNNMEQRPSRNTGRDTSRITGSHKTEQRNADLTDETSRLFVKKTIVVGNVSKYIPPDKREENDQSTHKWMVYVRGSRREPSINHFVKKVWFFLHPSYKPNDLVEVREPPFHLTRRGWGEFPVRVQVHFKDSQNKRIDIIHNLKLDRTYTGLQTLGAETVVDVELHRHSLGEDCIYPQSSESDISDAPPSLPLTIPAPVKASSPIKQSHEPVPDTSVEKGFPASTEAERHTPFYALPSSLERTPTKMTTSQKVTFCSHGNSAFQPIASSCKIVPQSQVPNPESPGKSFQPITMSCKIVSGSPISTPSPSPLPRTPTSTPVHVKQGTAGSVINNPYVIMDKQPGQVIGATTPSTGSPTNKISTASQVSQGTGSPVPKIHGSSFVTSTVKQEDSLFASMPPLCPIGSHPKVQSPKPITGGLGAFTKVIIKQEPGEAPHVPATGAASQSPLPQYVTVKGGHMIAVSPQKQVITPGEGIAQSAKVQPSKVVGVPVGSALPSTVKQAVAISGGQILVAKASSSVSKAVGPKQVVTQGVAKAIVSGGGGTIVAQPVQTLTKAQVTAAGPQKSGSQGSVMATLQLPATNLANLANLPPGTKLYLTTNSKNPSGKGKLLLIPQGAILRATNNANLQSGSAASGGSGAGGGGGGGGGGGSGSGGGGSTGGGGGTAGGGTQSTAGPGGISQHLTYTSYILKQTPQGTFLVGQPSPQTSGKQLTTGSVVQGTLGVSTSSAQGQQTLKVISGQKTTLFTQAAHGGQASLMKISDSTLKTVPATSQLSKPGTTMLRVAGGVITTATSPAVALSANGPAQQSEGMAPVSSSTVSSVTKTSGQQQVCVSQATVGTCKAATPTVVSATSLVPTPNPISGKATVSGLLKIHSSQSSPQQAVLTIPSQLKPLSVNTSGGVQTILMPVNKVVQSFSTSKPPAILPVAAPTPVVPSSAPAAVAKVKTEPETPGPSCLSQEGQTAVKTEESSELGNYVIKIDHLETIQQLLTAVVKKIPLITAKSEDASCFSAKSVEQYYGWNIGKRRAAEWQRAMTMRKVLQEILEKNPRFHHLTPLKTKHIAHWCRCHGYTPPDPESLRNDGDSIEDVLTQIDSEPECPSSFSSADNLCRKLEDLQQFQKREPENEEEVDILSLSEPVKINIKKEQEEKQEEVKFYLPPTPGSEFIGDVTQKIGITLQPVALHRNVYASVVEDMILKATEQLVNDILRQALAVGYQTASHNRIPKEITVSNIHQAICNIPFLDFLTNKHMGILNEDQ
UniProt P42568: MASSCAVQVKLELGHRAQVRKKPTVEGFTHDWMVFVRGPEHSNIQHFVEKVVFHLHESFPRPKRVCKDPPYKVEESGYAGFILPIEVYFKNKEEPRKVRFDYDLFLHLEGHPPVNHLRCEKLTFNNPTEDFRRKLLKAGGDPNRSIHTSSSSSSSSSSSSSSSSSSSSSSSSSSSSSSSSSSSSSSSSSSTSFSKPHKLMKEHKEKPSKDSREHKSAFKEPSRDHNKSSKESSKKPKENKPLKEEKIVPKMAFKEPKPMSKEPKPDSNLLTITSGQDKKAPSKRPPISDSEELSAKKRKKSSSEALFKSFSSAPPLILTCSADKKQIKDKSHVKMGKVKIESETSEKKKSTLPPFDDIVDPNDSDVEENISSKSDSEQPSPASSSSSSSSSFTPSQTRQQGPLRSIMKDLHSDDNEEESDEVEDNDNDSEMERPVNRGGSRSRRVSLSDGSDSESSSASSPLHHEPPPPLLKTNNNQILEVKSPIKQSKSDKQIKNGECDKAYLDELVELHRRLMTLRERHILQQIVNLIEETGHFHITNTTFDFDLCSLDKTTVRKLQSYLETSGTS
UniProt Q12809: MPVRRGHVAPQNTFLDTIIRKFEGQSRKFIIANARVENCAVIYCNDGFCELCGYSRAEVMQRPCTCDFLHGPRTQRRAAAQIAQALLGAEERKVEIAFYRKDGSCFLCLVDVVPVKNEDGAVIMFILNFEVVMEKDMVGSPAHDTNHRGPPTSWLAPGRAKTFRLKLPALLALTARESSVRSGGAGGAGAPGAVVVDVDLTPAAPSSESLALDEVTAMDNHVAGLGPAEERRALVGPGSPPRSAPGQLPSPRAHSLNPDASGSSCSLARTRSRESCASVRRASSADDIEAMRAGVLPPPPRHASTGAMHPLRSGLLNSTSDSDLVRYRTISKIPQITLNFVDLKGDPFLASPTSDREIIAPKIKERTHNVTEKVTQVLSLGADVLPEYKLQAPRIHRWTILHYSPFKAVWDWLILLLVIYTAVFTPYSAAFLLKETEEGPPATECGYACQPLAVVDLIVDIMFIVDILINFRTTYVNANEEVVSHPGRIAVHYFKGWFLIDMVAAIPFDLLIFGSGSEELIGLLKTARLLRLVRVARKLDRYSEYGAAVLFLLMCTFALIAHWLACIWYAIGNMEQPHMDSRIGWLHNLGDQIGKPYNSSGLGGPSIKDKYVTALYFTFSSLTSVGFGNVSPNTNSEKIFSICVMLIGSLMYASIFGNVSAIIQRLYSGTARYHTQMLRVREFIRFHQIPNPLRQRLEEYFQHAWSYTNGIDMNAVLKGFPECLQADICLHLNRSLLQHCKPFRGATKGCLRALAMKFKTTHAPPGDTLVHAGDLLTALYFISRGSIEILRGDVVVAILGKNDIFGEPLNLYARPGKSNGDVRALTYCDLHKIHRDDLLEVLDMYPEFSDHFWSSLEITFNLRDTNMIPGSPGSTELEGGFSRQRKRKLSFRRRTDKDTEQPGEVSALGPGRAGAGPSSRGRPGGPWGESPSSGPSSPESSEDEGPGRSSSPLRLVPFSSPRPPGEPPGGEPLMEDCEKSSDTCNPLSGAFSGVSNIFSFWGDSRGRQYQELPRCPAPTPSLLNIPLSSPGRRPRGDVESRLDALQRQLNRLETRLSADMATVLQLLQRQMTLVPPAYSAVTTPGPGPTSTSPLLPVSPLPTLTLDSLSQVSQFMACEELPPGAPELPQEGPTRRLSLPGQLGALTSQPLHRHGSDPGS

A further data set addresses Protein ENL (Homo sapiens, UniProt Q03111). Kind of data set: Binding affinity to human his-tagged recombinant YEATS1 expressed in Escherichia coli assessed as inhibition constant using biotin tagged lysine 27-crotonylated histone H3 peptide as substrate preincubated for 20 mins followed by substrate addition measured after 30 mins by FRET analysis.
For data set [2], the target named is YEATS domain-containing protein 2 (Homo sapiens, UniProt Q9ULM3). Kind of data set: Binding affinity to human his-tagged recombinant YEATS2 expressed in Escherichia coli assessed as inhibition constant using biotin tagged lysine 27-crotonylated histone H3 peptide as substrate preincubated for 20 mins followed by substrate addition measured after 30 mins by FRET analysis.

A further data set addresses Protein AF-9 (Homo sapiens, UniProt P42568). Kind of data set: Binding affinity to human his-tagged recombinant YEATS3 expressed in Escherichia coli assessed as inhibition constant using biotin tagged lysine 27-crotonylated histone H3 peptide as substrate preincubated for 20 mins followed by substrate addition measured after 30 mins by FRET analysis.
The nature of data set [3]: Apparent permeability in dog RRCK cells. It is filed as ADME, cell-based, Canis lupus familiaris. Particulars: mdckii-le.
Data set [4] can be described thus: Intrinsic clearance in human hepatocytes assessed per million cells. It is filed as ADME, cell-based, Hepatocyte.
Data set [5] addresses Voltage-gated inwardly rectifying potassium channel KCNH2 (Homo sapiens, UniProt Q12809). The data set is described as follows: Inhibition of hERG assessed as inhibition constant by patch-clamp assay. It is filed as toxicity.
Data set [6] can be described thus: Cytotoxicity against human THLE cells assessed as inhibition of cell growth by CellTiter-Glo assay.
Data set [7] in a line: Lipophilicity, logD of the compound by shake flask method. Particulars: octanol/water. It is filed as physicochemical.

pIC50, pKi: −log10 of the molar value.

With `CCNC(=O)c1ccc2c(c1)[nH]c(=O)n2C1CCN(C[C@@H](O)c2ccc(Cl)cc2)CC1`, the pKi is 6.27 in data set [1]; 5.89 at Protein ENL; 5.22 in data set [2]; 5.82 on Protein AF-9; 5.34 in data set [5]. Moreover, in data set [3], the Papp is 0.055 ×10⁻⁶ cm/s. The compound further registered a CLH (uL/min/1e6 cells) in data set [4] of 6.9. Besides, the pIC50 in data set [6] was 4.06. Moreover, the pH-dependent lipophilicity (logD) in [7] was 2.7.

For the origin of these results see ChEMBL document CHEMBL5316283, “Discovery of High-Affinity Small-Molecule Binders of the Epigenetic Reader YEATS4” (J Med Chem, 2023).
